# PubChem BioAssay AID2557 (NMMLSC, 2010)
# By UniProt entry, the sequences of proteins in these tests, tags left out.
# UniProt P13612, whole entry, looked up: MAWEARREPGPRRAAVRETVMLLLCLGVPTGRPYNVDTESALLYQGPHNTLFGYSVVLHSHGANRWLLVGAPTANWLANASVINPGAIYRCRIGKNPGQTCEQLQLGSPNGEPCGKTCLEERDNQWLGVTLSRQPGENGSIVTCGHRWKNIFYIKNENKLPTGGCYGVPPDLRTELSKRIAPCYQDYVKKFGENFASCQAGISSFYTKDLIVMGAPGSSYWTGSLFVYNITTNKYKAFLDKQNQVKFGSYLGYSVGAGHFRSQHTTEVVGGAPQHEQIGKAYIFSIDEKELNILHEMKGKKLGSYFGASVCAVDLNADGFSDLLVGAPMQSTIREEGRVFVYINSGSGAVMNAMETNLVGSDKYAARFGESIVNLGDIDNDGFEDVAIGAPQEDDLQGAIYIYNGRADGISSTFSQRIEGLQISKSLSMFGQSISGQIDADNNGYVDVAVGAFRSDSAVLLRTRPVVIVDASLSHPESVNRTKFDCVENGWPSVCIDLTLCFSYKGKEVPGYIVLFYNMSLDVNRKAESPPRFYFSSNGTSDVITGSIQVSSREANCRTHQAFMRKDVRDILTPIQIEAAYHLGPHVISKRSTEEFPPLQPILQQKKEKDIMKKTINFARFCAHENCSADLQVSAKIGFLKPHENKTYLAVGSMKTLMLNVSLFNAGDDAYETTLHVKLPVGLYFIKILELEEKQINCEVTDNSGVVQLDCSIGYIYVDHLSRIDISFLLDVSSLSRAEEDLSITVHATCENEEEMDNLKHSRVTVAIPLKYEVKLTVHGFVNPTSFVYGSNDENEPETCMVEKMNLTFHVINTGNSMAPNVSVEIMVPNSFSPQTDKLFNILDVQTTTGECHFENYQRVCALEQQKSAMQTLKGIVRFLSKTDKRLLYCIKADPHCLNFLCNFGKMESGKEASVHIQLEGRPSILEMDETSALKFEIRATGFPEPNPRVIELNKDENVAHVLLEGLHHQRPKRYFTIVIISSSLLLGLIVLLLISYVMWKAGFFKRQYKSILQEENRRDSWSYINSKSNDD
# Only a part is listed here, and it is no random draw. The source made the active and inactive calls. Rule as the data show it: active = inhibition above about 50%; inactive = the rest.
# Target: Integrin alpha-4 (Homo sapiens) (UniProt P13612)
# Assay: VLA-4 integrin binding inhibitors – MLPCN library, flow cytometry, VLA-4 expressing cells, VLA-4 allosteric modulator project, primary screen (AID 2557)
# Conditions: ligand binding flow cytometry, hits give high values, about 7 µM as worked out from the volumes in the protocol
row,SMILES,inhibition
1,CSc1ccccc1C(=O)NCC1(N2CCCCC2)CCCCC1,inactive: 4.89%
2,COc1ccc(C(=O)NCC2(N3CCCCC3)CCCCC2)cc1,inactive: 3.35%
3,COc1ccc(C(=O)NCC2(N3CCCCC3)CCCCC2)c(OC)c1OC,inactive: 7.96%
4,CC(C)(C)OC(=O)N1CCC(N(C(=O)c2ccccc2)c2ccc(F)cc2)CC1,inactive: 8.5%
5,O=C(NCC1(N2CCCCC2)CCCCC1)c1ccc(=O)[nH]c1,inactive: -13.4%
6,O=C(NCC1(N2CCCCC2)CCCCC1)c1cccs1,inactive: 2.38%
7,O=C(OC1CN2CCC1CC2)C1c2ccccc2Oc2ccccc21 (stereo unspecified),inactive: 15.2%
8,O=C(NCC1(N2CCCCC2)CCCCC1)c1ccc(Cl)s1,inactive: 7.89%
9,N#CC1(Nc2ccccc2)CCN(Cc2ccccc2)CC1,inactive: 7.01%
10,COc1ccc(Cl)cc1C(=O)NCC1(N2CCOCC2)CCCCC1,inactive: -7.77%
11,CCOC(=O)N1CCC(Nc2ccc(OC)cc2)CC1,inactive: 18.7%
12,O=C(NCC1(N2CCCCC2)CCCCC1)c1ccc(Cl)nc1,inactive: -4.49%
13,Cc1cc(C)cc(N(C(=O)c2ccccc2)C2CCN(C(=O)OC(C)(C)C)CC2)c1,inactive: -8.46%
14,O=C(NCC1(N2CCOCC2)CCCCC1)c1cc2ccccc2o1,inactive: -5.34%
15,O=C(NCC1(N2CCCCC2)CCCCC1)c1ccc(F)cc1,inactive: 31.7%
16,CCOC(=O)N1CCC(Nc2ccc(F)cc2)CC1,inactive: 3.27%
17,COc1ccc(NC2CCN(CCc3ccccc3)CC2)c(OC)c1,inactive: 1.43%
18,CCOc1ccc(C)cc1CN(CCCl)CCCl,inactive: 3.59%
19,COc1cc(C(=O)NCC2(N(C)C)CCCCC2)ccc1OC(F)F,inactive: -14.2%
20,CCOC(=O)N1CCC(Nc2cccc(C)c2)CC1,inactive: 6.03%
21,Cc1ccc(OCC(C)C)c(CN(CCCl)CCCl)c1,inactive: 8.16%
22,CCN1CCC(Nc2ccc(Cl)cc2)CC1,inactive: -4.15%

row,SMILES,inhibition
1,N#CC1(Nc2ccccc2)CCN(CCc2ccccc2)CC1,inactive: 11.1%
2,O=C(NCC1(N2CCCCC2)CCCCC1)c1cccc([N+](=O)[O-])c1,inactive: 3.05%
3,O=C(NCC1(N2CCCCC2)CCCCC1)c1ccc(OC(F)F)cc1,inactive: 9.28%
4,O=C(NCC1(N2CCOCC2)CCCCC1)c1cc(=O)[nH]c2ccccc12,inactive: 11.1%
5,COc1cc(C(=O)NCC2(N3CCCCC3)CCCCC2)ccc1OC(F)F,inactive: 1.02%
6,COc1ccc(NC2CCN(C(=O)OC(C)(C)C)CC2)cc1,inactive: -15.2%
7,CN1CCN(CCOC(=O)C(O)(c2ccccc2)c2ccccc2)CC1,inactive: -3.97%
8,O=C(NCC1(N2CCCCC2)CCCCC1)c1cccc(C(F)(F)F)c1,inactive: 5.43%
9,COc1cc(OC)c(C(=O)NCC2(N(C)C)CCCCC2)cc1OC,inactive: 36.4%
10,O=C(NCC1(N2CCOCC2)CCCCC1)c1cc(F)c(F)cc1Cl,inactive: 4.64%
11,CC(C)c1ccc(NC2CCN(C(=O)OC(C)(C)C)CC2)cc1,inactive: -6.16%
12,COc1ccc(CN(CCCl)CCCl)cc1Cl,inactive: 10.3%
13,CN(C)c1cccc(C(=O)NCC2(N3CCCCC3)CCCCC2)c1,inactive: 0.33%
14,CCCOc1ccc(C(=O)NCC2(N(C)C)CCCCC2)cc1OC,inactive: -12.7%
15,O=C(NCC1(N2CCCCC2)CCCCC1)c1cncc(Br)c1,inactive: 4.72%
16,CN1CCC(Nc2cccc(F)c2)CC1,inactive: 11.2%
17,COc1ccc(C(=O)NCC2(N3CCOCC3)CCCCC2)cc1OC,inactive: -4.52%
18,COc1cc(C(=O)NCC2(N3CCOCC3)CCCCC2)cc(OC)c1C,inactive: -2.97%
19,O=C(NCC1(N2CCOCC2)CCCCC1)c1cc(Br)ccc1Cl,inactive: -3.06%
20,O=C(OC1CN2CCC1CC2)C1c2ccccc2C=Cc2ccccc21 (stereo unspecified),inactive: 11.1%
21,CCc1cc(C(=O)NCC2(N3CCCCC3)CCCCC2)sc1C,inactive: 16.5%
22,CCOC(=O)N1CCC(Nc2ccc(C)cc2)CC1,inactive: -8.36%

row,SMILES,inhibition
1,N/C(=N\O)c1c(N)no[n+]1[O-],inactive: 5.49%
2,N#Cc1ccc(C(=O)NCC2(N3CCCCC3)CCCCC2)cc1,inactive: -1.32%
3,CC(C)(C)OC(=O)N1CCC(N(C(=O)c2ccccc2)c2ccc(Cl)cc2)CC1,inactive: 14.6%
4,CN(C)C1(CNC(=O)c2cccc(C#N)c2)CCCCC1,inactive: -1.33%
5,c1ccc(CN2CCC(Nc3ccccc3)CC2)cc1,inactive: -8.23%
6,CCCN1CCC(Nc2cc(OC)cc(OC)c2)CC1,inactive: -14.7%
7,Cc1ccc(C(=O)NCC2(N3CCCCC3)CCCCC2)o1,inactive: -2.15%
8,Fc1ccccc1NC1CCN(Cc2ccccc2)CC1,inactive: -81.3%
9,COc1cc(OC)cc(C(=O)NCC2(N3CCCCC3)CCCCC2)c1,inactive: 1.52%
10,O=C(NCC1(N2CCCCC2)CCCCC1)c1ccco1,inactive: 37.5%
11,CN(C)c1ccc(C(=O)NCC2(N3CCCCC3)CCCCC2)cc1,inactive: 3.32%
12,CCN1CCC(Nc2cccc(F)c2)CC1,inactive: 0%
13,CC(C)(C)OC(=O)N1CCC(Nc2ccccc2)CC1,inactive: -4.63%
14,O=C(O)C1(Nc2ccccc2)CCN(Cc2ccccc2)CC1,inactive: 4.58%
15,CCCOc1ccc(C(=O)NCC2(N(C)C)CCCCC2)cc1,inactive: 18.6%
16,CCOc1ncccc1C(=O)NCC1(N2CCOCC2)CCCCC1,inactive: -0.43%
17,CN1CCC(Nc2ccc(F)c(Cl)c2)CC1,inactive: -6.96%
18,CN1CCC(Nc2ccc(Cl)cc2)CC1,inactive: -3.45%
19,CCCOc1ccc(C)cc1CN(CCCl)CCCl,inactive: 10.1%
20,COc1cccc(C(=O)N(c2cc(C)cc(C)c2)C2CCN(C(=O)OC(C)(C)C)CC2)c1,inactive: -2.11%
21,COc1cc(OC)cc(C(=O)NCC2(N3CCOCC3)CCCCC2)c1,inactive: -2.4%
22,CCC(CO)(C(=O)OC1CN2CCC1CC2)c1ccccc1 (stereo unspecified),inactive: -1.28%
